Test results as given in PubChem BioAssay (NCI).
Where “and” joins values, the source holds several entries; their conditions need not be identical. Equal values may be shown once. The list shows a part of the results, in another mix than the full data. More than one record can exist for a structure, and the calls need not agree. Calls of active or inactive are those of the source. Rule as the data show it: active = growth inhibition above about 70%; inactive = the rest.

Experiments:
[1] = NCI Yeast Anticancer Drug Screen. Data for the rad50 strain (AID 155);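 also: 0% = growth of vehicle-only cultures of the same strain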; conditions: S. cerevisiae rad50 strain growth inhibition, hits give high values
[2] = NCI Yeast Anticancer Drug Screen. Data for the mec2-1 strain (AID 157); conditions: S. cerevisiae mec2-1 strain, hits give high values
[3] = NCI Yeast Anticancer Drug Screen. Data for the sgs1 mgt1 strain (AID 161);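 also: 0% = growth of cultures given vehicle only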; conditions: S. cerevisiae sgs1 mgt1 strain, hits give high values
[4] = NCI Yeast Anticancer Drug Screen. Data for the cln2 rad14 strain (AID 165);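 also: 0% = growth equal to vehicle treated cultures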; conditions: S. cerevisiae cln2 rad14 strain, hits give high values
[5] = NCI Yeast Anticancer Drug Screen. Data for the bub3 strain (AID 167); conditions: S. cerevisiae bub3 mutant strain, hits give high values
[6] = NCI Yeast Anticancer Drug Screen. Data for the mlh1 rad18 strain (AID 175); conditions: S. cerevisiae mlh1 rad18 strain growth inhibition, hits give high values
[7] = at 50.0 µM (retest, dose inferred, filed as 5.0)
[8] = at 5.0 µM (retest, dose inferred, filed as 0.5)

Measured: growth inhibition

C1CN1.NC(CO)C(=O)O.NC(Cc1cnc[nH]1)C(=O)O (stereo not drawn)
inactive: [2]; [8] -6% and -5% | [2]; [7] 41% and 24% | [4]; [7] 52% and 11% | [5]; [7] 67% and 26%
active: [1]; [7] 72% and 91% | [1]; at 50.0 µM 98.8% | [2]; at 50.0 µM 98.2% and 98.5% | [3]; [7] 75% and 70% | [3]; at 50.0 µM 98.9% and 99.2% | [4]; at 50.0 µM 97.5% and 99.1% | [5]; at 50.0 µM 99.2% and 99.4% | [6]; [7] 75% and 85% | [6]; at 50.0 µM 98% and 98.8%

Cc1ccnc(C)c1.O=[N+]([O-])c1cc([N+](=O)[O-])c(O)c([N+](=O)[O-])c1
inactive: [1]; at 50.0 µM 2.5% | [2]; at 50.0 µM 7.45% | [3]; at 50.0 µM -10.8% | [4]; at 50.0 µM -5% | [5]; at 50.0 µM -1.35%

O=[N+]([O-])c1cc([N+](=O)[O-])cc([N+](=O)[O-])c1.c1ccc2cc3c(ccc4ccccc43)cc2c1
inactive: [1]; [8] 15% | [2]; [8] 11% | [3]; [8] 36% | [4]; [8] 3% | [5]; [8] 23% | [6]; [8] 13%
active: [1]; [7] 85% | [1]; at 50.0 µM 89.1% | [2]; [7] 94% | [2]; at 50.0 µM 86.5% | [3]; [7] 91% | [3]; at 50.0 µM 91.3% | [4]; [7] 85% | [4]; at 50.0 µM 83% | [5]; [7] 91% | [5]; at 50.0 µM 91% | [6]; [7] 91% | [6]; at 50.0 µM 83.2%

CC[S+]1C2CCCCCCC21.O=[N+]([O-])c1cc([N+](=O)[O-])c(S(=O)(=O)[O-])c([N+](=O)[O-])c1
inactive: [1]; [8] 9% | [1]; [7] 31% | [1]; at 50.0 µM 50.4% | [2]; [8] 20% | [2]; [7] 59% | [2]; at 50.0 µM 20.9% | [3]; [8] 15% | [3]; [7] 63% | [3]; at 50.0 µM 68.2% | [4]; [8] -2% | [4]; at 50.0 µM 43.5% | [5]; [8] 2% | [5]; [7] 31% | [5]; at 50.0 µM 38.7% | [6]; [8] 36% | [6]; [7] 62% | [6]; at 50.0 µM 33.8%

O=[N+]([O-])c1cc([N+](=O)[O-])c(Nc2cc(Cl)cc(Cl)c2)c([N+](=O)[O-])c1
inactive: [1]; [8] 57% | [4]; [8] 61%
active: [1]; [7] 96% | [1]; at 50.0 µM 83.7% | [2]; [8] 94% | [2]; [7] 99% | [2]; at 50.0 µM 84.7% | [3]; [8] 73% | [3]; [7] 98% | [3]; at 50.0 µM 87.3% | [4]; [7] 97% | [4]; at 50.0 µM 80.5% | [5]; [8] 91% | [5]; [7] 98% | [5]; at 50.0 µM 84.1% | [6]; [8] 96% | [6]; [7] 98% | [6]; at 50.0 µM 81.3%

CC(C)N(CCCl)C(C)C
inactive: [1]; [8] 2% | [1]; [7] 12% | [2]; [8] -4% | [2]; [7] -1% | [3]; [8] 2% | [3]; [7] 15% | [4]; [8] -1% | [4]; [7] 1% | [5]; [8] -1% | [5]; [7] 3% | [6]; [8] 13% | [6]; [7] 31%

Cc1cccc2c1ccc1cc3ccccc3cc12.O=C1c2cc([N+](=O)[O-])ccc2-c2c1cc([N+](=O)[O-])cc2[N+](=O)[O-]
inactive: [1]; at 50.0 µM 23.4% | [2]; at 50.0 µM -1.35% | [3]; at 50.0 µM 13.2% | [4]; at 50.0 µM -4.75% | [5]; at 50.0 µM 8.5% | [6]; at 50.0 µM 17.4%

O=[N+]([O-])c1ccc2c(c1)/C(=N/N=C1/c3cc([N+](=O)[O-])ccc3-c3c1cc([N+](=O)[O-])cc3[N+](=O)[O-])c1cc([N+](=O)[O-])cc([N+](=O)[O-])c1-2
active: [1]; [7] 86% | [1]; at 50.0 µM 86% | [2]; [7] 81% | [2]; at 50.0 µM 84.9% | [3]; [7] 93% | [4]; [7] 74% | [5]; [7] 97% | [5]; at 50.0 µM 98.3% | [6]; [7] 93% | [6]; at 50.0 µM 92.7%
inactive: [1]; [8] -3% | [2]; [8] 2% | [3]; [8] -7% | [3]; at 50.0 µM 42% | [4]; [8] -11% | [4]; at 50.0 µM 15.3% | [5]; [8] 16% | [6]; [8] 10%

O=C(O)C(O)(c1ccccc1)c1ccccc1
active: [5]; at 50.0 µM 74.8%
inactive: [1]; [8] 9% | [1]; [7] 66% | [1]; at 50.0 µM 67.5% | [2]; [8] 5% | [2]; [7] 19% | [2]; at 50.0 µM 66.1% | [3]; [8] 1% | [3]; [7] 15% | [3]; at 50.0 µM 67% | [4]; [8] 1% | [4]; [7] 3% | [4]; at 50.0 µM 12.8% | [5]; [8] 46% | [5]; [7] 31% | [6]; [8] 8% | [6]; [7] 30% | [6]; at 50.0 µM 56%

CCC(C)[S+]1C2CCCCCCC21.O=[N+]([O-])c1cc([N+](=O)[O-])c(S(=O)(=O)[O-])c([N+](=O)[O-])c1
inactive: [1]; [8] 4% | [1]; [7] 24% | [1]; at 50.0 µM 50.3% | [2]; [8] 16% | [2]; [7] 45% | [2]; at 50.0 µM 16.1% | [3]; [8] -19% | [3]; [7] 29% | [3]; at 50.0 µM 63.1% | [4]; [8] -6% | [4]; [7] 16% | [4]; at 50.0 µM 46.3% | [5]; [8] 18% | [5]; [7] 47% | [5]; at 50.0 µM 53.4% | [6]; [8] 18% | [6]; [7] 38% | [6]; at 50.0 µM 21.9%
